According to patent publication US12202815B2 (dated 2025):
Where two headings read alike, the source gives them in different places.

Key:
AR = biological target: T1, AR (Rattus norvegicus, UniProt P15207); details: 20 mg/kg
T1 sequence (P15207 1-902): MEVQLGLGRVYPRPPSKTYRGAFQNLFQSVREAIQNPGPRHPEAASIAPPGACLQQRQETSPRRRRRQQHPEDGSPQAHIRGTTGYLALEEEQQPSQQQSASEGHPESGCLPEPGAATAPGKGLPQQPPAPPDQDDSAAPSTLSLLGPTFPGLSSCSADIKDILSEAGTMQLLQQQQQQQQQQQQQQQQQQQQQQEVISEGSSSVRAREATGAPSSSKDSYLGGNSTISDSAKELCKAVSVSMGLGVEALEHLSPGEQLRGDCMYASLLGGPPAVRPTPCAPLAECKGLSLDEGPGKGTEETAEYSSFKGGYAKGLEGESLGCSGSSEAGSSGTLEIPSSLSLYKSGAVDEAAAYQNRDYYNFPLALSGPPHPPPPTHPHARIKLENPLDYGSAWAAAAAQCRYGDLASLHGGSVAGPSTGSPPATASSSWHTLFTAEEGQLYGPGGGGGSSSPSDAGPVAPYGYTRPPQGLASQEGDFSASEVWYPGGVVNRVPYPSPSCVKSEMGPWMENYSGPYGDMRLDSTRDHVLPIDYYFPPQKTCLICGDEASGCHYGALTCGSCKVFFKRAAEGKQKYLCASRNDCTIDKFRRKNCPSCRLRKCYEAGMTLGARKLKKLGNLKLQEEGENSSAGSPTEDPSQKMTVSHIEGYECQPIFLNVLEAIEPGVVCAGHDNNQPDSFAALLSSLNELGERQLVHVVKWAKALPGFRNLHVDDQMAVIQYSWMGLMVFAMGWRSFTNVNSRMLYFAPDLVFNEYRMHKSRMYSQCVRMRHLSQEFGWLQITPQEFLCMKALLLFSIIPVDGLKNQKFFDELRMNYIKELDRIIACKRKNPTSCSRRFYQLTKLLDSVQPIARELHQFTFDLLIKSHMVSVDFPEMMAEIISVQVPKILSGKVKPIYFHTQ

full length AR = assay: LNCaP or AD1 degradation (AR FL), Western blot; format: cell-based

C[C@](O)(Cn1cc(Br)c(F)n1)C(=O)Nc1ccc(C#N)c(C(F)(F)F)c1 [Compound 1058]
Serum Conc. (Table 2, rats 20 mg/kg, 24-30 hours after last dose): 404 nM
Serum Conc. (Table 3, 20 mg/kg Hershberger): 404 nM

C[C@](O)(Cn1cc(F)cn1)C(=O)Nc1ccc(C#N)c(C(F)(F)F)c1
Serum Conc. (Table 3, 20 mg/kg Hershberger): 33 nM

C[C@](O)(Cn1cc(Cl)cn1)C(=O)Nc1ccc(C#N)c(C(F)(F)F)c1 [Compound 1049]
(Prostate) % diff (AR; prostate weight vs intact vehicle treated rats): −20%
(S.V.) % diff (AR; seminal vesicles weight vs intact vehicle treated rats): −65%

ARN-509 [reference compound]
SARD Activity Full Length % inhibition at 1, 10 μM (full length AR; single value given, concentration not specified): 0%
SARD Activity S.V. % inhibition at 10 μM (AR splice variants): 0%

C[C@](O)(Cn1ccc2cc(F)ccc21)C(=O)Nc1cnc(C#N)c(C(F)(F)F)c1 [Compound 47, (S)—N-(6-Cyano-5-(trifluoromethyl)pyridin-3-yl)-3-(5-fluoro-1H-indol-1-yl)-2-hydroxy-2-methylpropanamide]
SARD Activity Full Length % inhibition at 1 μM (full length AR; first value of the pair, 1 μM): 57%
SARD Activity Full Length % inhibition at 10 μM (full length AR; second value of the pair, 10 μM): 97%

C[C@](O)(Cn1cc(Cl)c(Br)n1)C(=O)Nc1ccc(C#N)c(C(F)(F)F)c1 [Compound 1066, (S)-3-(3-Bromo-4-chloro-1H-pyrazol-1-yl)-N-(4-cyano-3-(trifluoromethyl)phenyl)-2-hydroxy-2-methylpropanamide]
Serum Conc. (Table 3, 20 mg/kg Hershberger): 19 nM
